## OPERA 2.9 data: water solubility values

Data: OPERA 2.9 data sets, kmansouri/OPERA on GitHub.

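OPERA's authors assembled the values from existing databases and did not measure them anew. A listed value is a point estimate from one report or more. Method and conditions are not stated for these values. The measured form (salt, isomer or mixture) is not always the one drawn. Some entries may be limits or estimates that an upstream database listed as plain numbers.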

Water solubility is log10 of mol/L, nominally at 25 °C; higher is more soluble.

SMILES | log solubility (log10 mol/L)
CCNC(=O)C(=O)O[C@@H]1C[C@H](C)CC[C@H]1C(C)C | -3.148
OC(CCN1CCCCC1)(c1ccccc1)C1CCCC1 (stereo not drawn) | -4.5
O=C(O)CCCCCC(C(=O)O)(c1ccccc1)c1ccccc1 | -3.497
O=C(O)C(F)(F)C(F)(F)C(F)(F)C(F)(F)C(F)(F)C(F)(F)C(F)(F)C(F)(F)C(F)(F)C(F)(F)C(F)(F)C(F)(F)C(F)(F)C(F)(F)C(F)(F)C(F)(F)C(F)(F)F | -8.289
CC(C)=CCCC(C)CCCC(C)C=O (stereo not drawn) | -5.497
Cc1cc(C)cc(OCC2CNC(=O)O2)c1 (stereo not drawn) | -2.238
Cn1cc(C(=O)Cl)c(C(F)F)n1 | -1.794
Nc1nc(-c2ccc3ccccc3c2)cs1 | -4.85
C/C=C(/Cl)C(=O)O | -0.757
O=S(=O)(O)c1ccc(N=Nc2c(O)ccc3ccccc23)cc1 | -0.276
NN(CC(=O)O)CC(=O)O | -1.723
Cc1cn[nH]c1 | 0.833
COc1cccc(C(C)=O)c1 | -1.725
O=C1C=CC(=O)N1c1ccccc1 | -2.327
C[C@@H]1C[C@H]2[C@@H]3CCC4=CC(=O)C=C[C@]4(C)[C@@]3(Cl)[C@@H](O)C[C@]2(C)[C@@]1(O)C(=O)CCl | -4.912
CCCCCCCCCCCCCCCCCCNC(=O)C(C)O (stereo not drawn) | -4.06
CCCOC(=O)C(C)OC(C)=O (stereo not drawn) | -0.64
O=C(O)COc1ccc2ccccc2c1 | -3
CC(C)(C)c1cc(O)c(C(C)(C)C)cc1O | -4.767
COC(=O)/C=C(/C)C(=O)OC | -1.514
CC(O)CC(C)CCc1ccccc1 (stereo not drawn) | -2.803
Cn1cncc1C[C@H](N)C(=O)O | 0.072
CC(C)(O)c1ccccc1CC[C@H](O)c1cccc(C=Cc2ccc3ccc(Cl)cc3n2)c1 | -6.619
CCCCCCC(C=O)=Cc1ccccc1 | -5.012
COC(=O)/C(C)=C/C(=O)O | -0.752
CCOCC(C)OCC (stereo not drawn) | -0.397
CNc1ccc(N)c2c1C(=O)c1ccccc1C2=O | -5.64
CC(C)CCCCCCCCCCCCCCCOC(=O)CCCCCCCCCCCCCCC(C)C | -7.086
OC[C@H]1OC2(COC3(CO2)O[C@H](CO)[C@@H](O)[C@@H]3O)[C@@H](O)[C@@H]1O (stereo partly drawn) | -0.006
CCCCOC(=O)CCC(C)=O | -1.199
CN(C)Cc1ccccc1Cl | -1.849
Cc1cc(C)c(O)c(C(c2cc(C)cc(C)c2O)C(C)C)c1 | -6.167
O=C(O)C1c2ccccc2C(C(=O)O)c2ccccc21 (stereo not drawn) | -2.73
CO[C@H]1O[C@H](C(=O)O)[C@H](O)[C@H](O)[C@H]1O | 0.014